Assay results taken from PubChem BioAssay AID588492 (Sanford-Burnham Center for Chemical Genomics, 2011).
The entries are a selection whose mix differs from that of the whole data set. Activity calls are given as the source filed them.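 How the source made its calls: active means compounds giving at least 50% protection of heart cells from peroxide-induced death in the single-dose screen, raw or plate-pattern-corrected value; inactive means the rest.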

Assay: H9c2 cardiomyocyte survival under peroxide injury – uHTS, H9c2 cells, ATPLite luminescence, primary screen (AID 588492);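 further: 0% = DMSO wells with peroxide and 100% = DMSO wells without peroxide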
Conditions: H9c2 cardiomyocytes, 2 h, at 20 µM, active compounds read high

Row | SMILES | protection from H2O2 cell death
1 | COc1ccc(N/C(=N/P(=O)(N2CCOCC2)N2CCOCC2)N2CCOCC2)cc1 | inactive: 4.8%
2 | O=[N+]([O-])c1cc(Oc2ccc([N+](=O)[O-])cc2C(F)(F)F)cc([N+](=O)[O-])c1 | inactive: -9.9%
3 | COc1cc(I)ccc1[As](=O)(O)O | inactive: 0%
4 | COc1ccc2nc(NP(=O)(c3ccccc3)c3ccccc3)sc2c1 | inactive: 11.3%
5 | O=P1(N(CCCl)CCCl)OCCCN1CCCl (configuration not stated) | inactive: 2.9%
6 | O=P1(N(CCCl)CCCl)Nc2ccccc2N1 | active: 59.2%
7 | Cc1cc(=O)[nH]c(N[N+](=O)[O-])n1 | inactive: -0.6%
8 | O=C(OC1CN2CCC1CC2)C12CC3CC(CC(C3)C1)C2 (configuration not stated) | inactive: -4.4%
9 | Cc1c2c(nc3ccccc13)SC(C(Cl)Cl)C2 (configuration not stated) | inactive: -3.3%
10 | O=[N+]([O-])c1cc([N+](=O)[O-])c(-c2ccn[nH]2)s1 | inactive: -23.2%
11 | CC(C)NC(=O)NP(=O)(Oc1ccccc1)Oc1ccccc1 | inactive: -2.5%
12 | CCN(CC)C(=S)SC(NC=O)C(Cl)(Cl)Cl (configuration not stated) | inactive: -8.3%
13 | O=C(OC1CN2CCC1CC2)c1cccc2[nH]cnc12 (configuration not stated) | inactive: 9.1%
14 | COC(=O)C1(C)COP(=O)(N2CCCCCC2)OC1 (configuration not stated) | inactive: -2.1%
15 | CC(C)c1ccc(OP(=O)(Nc2ccccn2)Oc2ccccc2F)cc1 (configuration not stated) | inactive: -4.5%
16 | ClCCSc1nnc(-c2cccnc2)o1 | inactive: 3%
17 | Cc1ccc2nc3c(c(C)c2c1)CC(C(Cl)Cl)S3 (configuration not stated) | inactive: -3.3%
18 | Cc1ccc(OP(=O)(Nc2ccc([N+](=O)[O-])cn2)Oc2ccc(C)cc2)cc1 | inactive: -7.2%
19 | O=[N+]([O-])c1ccc(-c2cc([N+](=O)[O-])c(O)c([N+](=O)[O-])c2)cc1 | inactive: -0.1%
20 | C[As](=O)(O)c1cccc(C(=O)O)c1 | inactive: -3.9%
21 | O=[As](O)(c1ccc(O)cc1)c1ccccc1O | inactive: 0.4%
22 | CN(C(=O)Cc1ccc(Cl)c(Cl)c1)[C@H]1CC[C@@]2(CCCO2)C[C@@H]1N1CCCC1 | inactive: 2.3%
23 | O=[N+]([O-])c1ccc2c(c1)nnn2O | inactive: -6.1%
24 | CN(C)C(=O)c1cc([N+](=O)[O-])cc2c1-c1c(cc([N+](=O)[O-])cc1[N+](=O)[O-])C2=O | inactive: -13.6%
25 | CCOP1(=S)c2c(C)nn(CCC#N)c2N=C(c2ccc(F)cc2)N1C (configuration not stated) | inactive: 4%
26 | CN(C(=O)Cc1ccccc1)[C@@H]1CC[C@]2(CCCO2)C[C@H]1N1CCCC1 | inactive: 1.1%
27 | N#CCCN(C(=O)COC(=O)C(O)(c1ccccc1)c1ccccc1)c1ccc(F)cc1 | inactive: -5.5%
